miR122 inh = inhibitors of miR-122 in Huh7 cells. AID 602342. activation (reporter increase), % at 12.5 µM. Huh7 miR-122 Renilla luciferase sensor, 48 h; neutral wells = 0, positive control = 100. hit rate 0.3% among 340,000;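 active = mean replicate activation score at least 90 and every replicate individually at or above 90; inconclusive = only one of the two criteria met; inactive = neither criterion met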;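 also: higher luciferase means less miR-122 activity so hits act as miR-122 inhibitors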
TRPM1 prom inh = reduces MITF-dependent TRPM1 promoter luciferase signal. SK-MEL-5 TRPM1 promoter luciferase, 24 h. hit rate 0.83% among 330,000. AID 488899. inhibition, % at 12.5 µM;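 active = mean inhibition across replicates of 60% or more, whatever share of single replicates reaches that level; inconclusive = some that reach 60%, reason not given; inactive = mean inhibition across replicates below 60%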
PGC1a acetyl inh = lowers PGC1a acetylation signal in U2OS cells; inhibition, % at 15.6 µM; AlphaScreen anti-acetyl-lysine; with virally co-expressed GCN5 acetyltransferase; hit rate 0.17% among 350,000;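 active = every replicate shows inhibition of at least 40%; inconclusive = mean inhibition at least 40% but some replicate below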;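 also: 0% = neutral control wells and 100% = positive control wells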
MITF act = increases MITF-driven TRPM1 promoter luciferase signal. activation, % at 12.5 µM. hit rate 0.75% among 300,000. SK-MEL-5 TRPM1-promoter luciferase, 24 h; % of positive control, neutral wells = 0;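 active = mean activation of at least 80% with every replicate also reaching 80%; inconclusive = mean reaches 80% but some replicate falls short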;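 also: 0% = neutral control wells and 100% = parthenolide positive control wells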
UUG fidelity = modulators of start codon recognition fidelity in yeast; S. cerevisiae UUG-firefly luciferase reporter, luminescence/redox ratio; activity score, % at 18.7 µM; hit rate 0.13% among 350,000; AID 602363;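 active = replicate mean at a twofold rise or more, about +100% in these data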;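 note: firefly luciferase made from a UUG start codon reports start codon fidelity; reporter light over untreated wells divided by growth signal over untreated wells; some hits fall short of that in this replicate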
Wnt act = activates Wnt/beta-catenin signaling in a reporter cell assay; activator, plate reader; activation, % at 9.35 µM; hit rate 1.2% among 300,000; AID 743398; in the data active = activation above about 30%, passing the limit was not always enough; inconclusive = no clear call, values can overlap the other calls;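 also: 0% = neutral control wells and 100% = positive control wells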
An asterisk follows results filed as active; ? = inconclusive; . = not tested or not shown; [ ] = dose if it differs, or a comment. Most compounds without a hit are left out; they make up all but 2.1% or so of the library.

item	Compound	miR122 inh	TRPM1 prom inh	PGC1a acetyl inh	MITF act	UUG fidelity	Wnt act
1	C/C(=C\c1ccccc1)C(=O)Nc1ccc(Cl)cn1	-2	-95	-4	.	-33	33*
2	O=C(Nc1ccc(Cl)cn1)Nc1ccccc1F	4	-37	-1	.	7	39*
3	O=C(Nc1ccc(Cl)cn1)c1ccccc1F	9	-22	11	30	9	39*
4	O=C(NC(=O)c1ccccc1)Nc1ccc(Cl)cn1	.	-43	.	53	-17	35*
5	Cc1cc(C)cc(NC(=O)Nc2ccc(Cl)cn2)c1	-13	-3	.	0	-7	-1
6	O=C(Nc1ccc(Cl)cn1)c1cccc(F)c1	36	-19	-1	23	-17	.
7	O=C(Nc1ccc(Cl)cn1)Nc1ccc(Cl)cn1	.	-23	.	25	.	22
8	CNC[C@@H]1Oc2ccc(NS(C)(=O)=O)cc2C(=O)N([C@H](C)CO)C[C@H]1C	-3[16.7 µM]	.	9	.	-12	.
9	CCC(=O)N1[C@H](C(=O)NCc2ccccc2F)[C@@H](CO)[C@@H]2Cn3c(cccc3=O)[C@@H]21	-1[16.7 µM]	.	.	.	.	.
10	CN1c2ccc(C#Cc3cccnc3)cc2[C@H]2[C@H](CCN2C(=O)Nc2cc(F)ccc2F)[C@@H]1CO	-4[16.7 µM]	.	-14	.	-6	.
11	CCCCC(=O)Nc1ccc2c(c1)oc1ccccc12	35	-75	1	?	.	21
12	CC(C)CC(=O)Nc1ccc2c(c1)oc1ccccc12	72	-91	3	91*	-11	.
13	C[C@H]1CN([C@@H](C)CO)S(=O)(=O)c2ccc(-c3ccccc3)cc2O[C@@H]1CN(C)C	0[16.7 µM]	.	-2	.	9	.
14	O=C1N(Cc2cccc(Cl)c2)C[C@@H]2C[C@@H](c3ccccn3)N3CCC[C@@]123	-6	3	-4	-2	-27	33*
15	C[C@@H]1CN([C@H](C)CO)C(=O)c2cc(NC(=O)Cc3ccccc3)ccc2O[C@@H]1CN(C)Cc1ccc(-c2ccccc2)cc1	0[16.7 µM]	.	-5	.	9	.
16	O=C(/C=C/c1ccc(Br)cc1)NC1CCCCCC1	2	-72	-11	74	-18	13
17	CC(C)Cc1ccc(/C=C/C(=O)NC2CC2)cc1	-2	-81	-6	80	-8	54*
18	O=C1ON=C(c2ccccc2)/C1=C/c1ccc(-c2ccccc2[N+](=O)[O-])o1	7	67*	0	-66	-3	-2
19	O=C(Nc1ccc2c(c1)OCO2)c1noc2c1CCCCC2	0	-2	-5	3	-11	.
20	CC(=O)c1ccc(NC(=O)c2noc3c2CCCCC3)cc1	-9	-84	-10	89*	-15	.
21	O=C(Nc1ccc2c(c1)OCO2)c1noc2c1CCCC2	4	-3	.	8	-9	38*
22	Cc1noc(C)c1NC(=O)N(C)C[C@@H]1OCCCC[C@H](C)Oc2ccc(NS(C)(=O)=O)cc2C(=O)N([C@@H](C)CO)C[C@H]1C	4[16.7 µM]	.	-4	.	-2	.
23	C[C@H]1CN([C@@H](C)CO)C(=O)c2cc(NC(=O)Nc3cccc4ccccc34)ccc2O[C@@H]1CN(C)S(=O)(=O)c1cn(C)cn1	-1[16.7 µM]	.	1	.	5	.
24	COc1ccc(OCc2cc(C(=O)N(C)Cc3cc(C4CC4)n[nH]3)no2)c(Cl)c1	-4	-82	.	90*	-7	18
25	O=C(Nc1nc2c(s1)CCc1ccccc1-2)c1ccco1	98*	-20	-18	.	-7	.
26	Cc1csc2c(=O)sc(NC(=O)c3ccco3)nc12	117*	4	7	.	-20	1
27	O=C(Nc1nc2ccsc2c(=O)s1)c1ccco1	-11	.	-3	.	-6	43*
28	Cc1csc2c(=O)sc(NC(=O)c3cccs3)nc12	-3	9	-16	.	0	3
29	C[C@H](CO)N1C[C@H](C)[C@@H](CN(C)CC2CC2)Oc2cc(-c3ccccc3)ccc2S1(=O)=O	0[16.7 µM]	.	1	.	7	.
30	CCCN1C[C@H](C)[C@@H](OC)CN(C)C(=O)c2ccc(NC(=O)c3cccc(F)c3)cc2OC[C@H]1C	.	.	-12	.	5	.

Marked active in TRPM1 prom inh, of those listed so far:
item	Compound	miR122 inh	TRPM1 prom inh	PGC1a acetyl inh	MITF act	UUG fidelity	Wnt act
18	O=C1ON=C(c2ccccc2)/C1=C/c1ccc(-c2ccccc2[N+](=O)[O-])o1	7	67*	0	-66	-3	-2

Two of these compounds in a different format.
#27 O=C(Nc1nc2ccsc2c(=O)s1)c1ccco1
  miR122 inh: -11
  TRPM1 prom inh: .
  PGC1a acetyl inh: -3
  MITF act: .
  UUG fidelity: -6
  Wnt act: 43*
#28 Cc1csc2c(=O)sc(NC(=O)c3cccs3)nc12
  miR122 inh: -3
  TRPM1 prom inh: 9
  PGC1a acetyl inh: -16
  MITF act: .
  UUG fidelity: 0
  Wnt act: 3

(further entries)
item	Compound	miR122 inh	TRPM1 prom inh	PGC1a acetyl inh	MITF act	UUG fidelity	Wnt act
31	O=C(NCC[C@H]1CC[C@H](NC(=O)C2CCOCC2)[C@@H](CO)O1)c1ccc(F)cc1	.	.	-6	.	-8	.
32	COc1ccccc1C=Cc1ccnc2ccccc12	9	-1	21	-2	-18	-3
33	CN(C)c1ccc(C=Cc2ccnc3ccccc23)cc1N	-5	.	0	.	-5	39*
34	CN(C)CC(=O)Nc1ccc2c(c1)[C@H]1C[C@H](CC(=O)N3CCCCC3)O[C@H](CO)[C@H]1O2	-1[16.7 µM]	.	-10	.	.	.
35	COc1ccccc1OCCNC(=O)c1ccc2c(c1)OCCO2	.	-59	8	59	-23	52*
36	C/C(=N\NC(=O)c1cccs1)c1ccc2c(c1)OCO2	3	-33	-5	34	.	7
37	C/C(=N\NC(=O)c1ccccc1)c1ccccc1Br	.	-38	.	42	.	?
38	CC(=NNC(=O)c1cccs1)c1ccc2c(c1)OCCO2	14	-104	-5	105*	-25	?
39	C/C(=N\NC(=O)c1ccccc1)c1ccccc1F	2	-39	-6	47	.	57*
40	N/C(=N\O)c1ccc(NC(=O)c2cccs2)cc1	-21	-55	3	53	-20	40*
41	CCC(=O)N1C[C@@H](C)[C@@H](OC)CN(C)C(=O)c2ccc(NC(=O)Nc3ccc(Cl)cc3)cc2OC[C@@H]1C	.	.	1	.	.	.
42	COc1ccc(CN(C)C[C@@H]2Oc3ccc(NC(=O)Nc4ccc5c(c4)OCO5)cc3C(=O)N([C@H](C)CO)C[C@H]2C)cc1	6[16.7 µM]	.	2	.	13	.
43	C/C(=N\NS(=O)(=O)c1ccc([N+](=O)[O-])cc1)c1ccc(NC(=O)c2ccco2)cc1	1	-70	-4	68	-10	34*
44	C/C(=N\NC(=O)c1ccco1)c1ccc(NC(=O)c2cccs2)cc1	.	-37	.	32	.	39*
45	C/C(=N\NC(=O)c1ccc2c(c1)OCCO2)c1ccccc1	-3	-1	4	.	-2	47*
46	C/C(=N\NC(=O)c1ccc(O)cc1)c1ccc2c(c1)OCCO2	-2	-29	2	31	-13	-1
47	C[C@H](CO)N1C[C@H](C)[C@H](CN(C)C(=O)Nc2cccc3ccccc23)Oc2ccc(NC(=O)CCCCCC(=O)Nc3ccccc3N)cc2CC1=O	-5[16.7 µM]	.	-1	.	-9	.
48	Cc1ccc(N2C(=O)c3cccc4c([N+](=O)[O-])ccc(c34)C2=O)c2cccnc12	25	74*	0	-74	-18	41*
49	Cc1ccnc(N2C(=O)c3cccc4c([N+](=O)[O-])ccc(c34)C2=O)c1	-6	13	30	-11	-12	27
50	CCCC(=O)Nc1ccc2c(c1)C(=O)N(C)C[C@H](OC)[C@@H](C)CN(C(=O)c1ccccc1F)[C@@H](C)CO2	-10[16.7 µM]	.	5	.	2	.
51	FC(F)(F)c1cc(CCN2CCNC[C@@H]2CC2CCCCC2)cc(C(F)(F)F)c1	-38	64*	-28	-65	13	-25

Two records picked at random from the list so far, as already listed:
item	Compound	miR122 inh	TRPM1 prom inh	PGC1a acetyl inh	MITF act	UUG fidelity	Wnt act
37	C/C(=N\NC(=O)c1ccccc1)c1ccccc1Br	.	-38	.	42	.	?
34	CN(C)CC(=O)Nc1ccc2c(c1)[C@H]1C[C@H](CC(=O)N3CCCCC3)O[C@H](CO)[C@H]1O2	-1[16.7 µM]	.	-10	.	.	.
